Test [1] concerns the target trypsin (immobilized active trypsin, Pierce; or free trypsin) (UniProt P00760). The test is described as follows: phage on protease beads, pH 2.2 elution.
Test [2] has as its target streptavidin (agarose-immobilized, Sigma) (UniProt P22629). Nature of the test: phage on agarose beads, pH 2.2 elution, dot blot.
In test [3] the target is anhydro-trypsin (agarose-immobilized, Pierce) (UniProt P00760). The test is described as follows: phage on agarose beads, pH 2.2 elution, dot blot.
Test [4] deals with human neutrophil elastase (HNE), immobilized on agarose beads (human) (UniProt P08246). Nature of the test: phage on beads, acid elution, pfu.
In test [5] the target is trypsin (immobilized active trypsin, Pierce; or free trypsin) (UniProt P00760). The test is described as follows: phage on beads, acid elution, pfu.
For test [6] the target is unchanged. The test is described as follows: phage on beads, elution, pfu.
Test [7] has as its target anhydro-trypsin (agarose-immobilized, Pierce) (UniProt P00760). The test is described as follows: phage on beads, elution, pfu.
The next test addresses Protein A-agarose beads (UniProt P38507). The test is described as follows: phage titer after protein A-agarose; batch 5.
Test [8] concerns the target normal rabbit serum / IgG purified from normal rabbit serum. Nature of the test: phage titer after normal rabbit IgG and protein A-agarose; batch 5.
The target is the same in test [9]. Nature of the test: phage titer after normal rabbit IgG; batch 5.
The target is the same in test [10]. The test is described as follows: phage titer after normal rabbit IgG and protein A-agarose; batch 4.
The target of test [11] is anhydro-trypsin (agarose-immobilized, Pierce) (UniProt P00760). Nature of the test: phage on beads, acid elution, pfu; experiment 1.
The target in test [12] is normal rabbit serum / IgG purified from normal rabbit serum. The test is described as follows: phage titer after normal rabbit IgG; batch 4.
Test [13] has as its target streptavidin (agarose-immobilized, Sigma) (UniProt P22629). The test is described as follows: phage titer after incubation with beads.
Test [14] deals with anhydro-trypsin (agarose-immobilized, Pierce) (UniProt P00760). Nature of the test: phage titer after incubation with beads.

Seven substances from patent US20060084113A1 can be followed below.

In test [1], BPTI(K15L)-III MA phage yielded a percentage of input phage recovered of 0.005% and a total pfu in elution fraction of 52000 pfu.
With “BPTI-III MK phage (M13 derivative displaying BPTI fused to the gene III protein)”, the percent of total phage recovered in elution buffer, 5 µl IS in test [2] was less than 1%. For the same substance, in test [3], the percent of total phage recovered in elution buffer, 2 µl IAT was found to be 5%; the percent of total phage recovered in elution buffer, 5 µl IAT was determined as 20%; the percent of total phage recovered in elution buffer, 10 µl IAT turned out to be 50%.
In the case of “M13.3X7 phage (BPTI:VIII fusion with one EGGGS linker) (from UniProt P00974 36-92) (other; other documents disagree on this pair)”, in [4], the eluted phage, % of input is 0.001 % of input and the relative binding (to M13MP18) turned out to be 3.3 fold.
“M13.3X7 phage (BPTI:VIII fusion with one EGGGS linker) (from UniProt P00974 36-92)”: the results for the eluted phage, % of input in test [5], in [6] and in test [7] were 1.15 % of input, 1.4 % of input and 25 % of input, respectively. Also, the relative binding (to M13MP18) in [5] is 2300 fold; in [6], 6000 fold; in [7], 250 fold.
“M13.3X11 phage (BPTI:VIII fusion with 3 linkers)”: in test [7], the eluted phage, % of input is 9.2 % of input and the relative binding (to M13MP18) came to 92 fold.
Consider “M13MB48 phage (BPTI:VIII fusion protein display phage) (from UniProt P00974 36-93)”, for which the % of input pfu left, +Protein A with Protein A-agarose beads was 58 % of input. For the same substance, the % of input pfu left, +NRS +Protein A in test [8] was 110 % of input; in [10], 121 % of input. Besides, the % of input pfu left, +NRS was 105 % of input in test [9] and 125 % of input in test [12]. Further, the figures for the eluted phage, % of input in test [5] and in test [11] were 0.13 % of input and 11.2 % of input, respectively. In addition, the relative binding (to M13MP18) in test [5] was found to be 260 fold. In [11], this substance showed a binding relative to M13MP18 of 56 fold. Also, the % of input pfu left after incubation in test [13] is 98 % of input; in test [14], 58 % of input.
As for “M13MB48 phage (BPTI:VIII fusion protein display phage) (from UniProt P00974 36-93) (other; other documents disagree on this pair)”, in test [4], the eluted phage, % of input was 0.009 % of input and the relative binding (to M13MP18) came to 30 fold.
